The numbers were not newly measured in patent publication US20100189701A1, “METHODS AND COMPOSITIONS TO TREAT ARRHYTHMIAS” (priority 2007, published 2010), which cites them from elsewhere.

For this data set the following is noted: steady state inactivation; cited from earlier work.

Consider SCN5a: cardiac sodium channel, for which the Slope factor is recorded as −6.5 mV.
